Measurements: patent US10392369B2, “N-[(pyrimidinyloxy)propanyl]benzamides” (Boehringer Ingelheim International GmbH, priority 2016, dated 2019)

Amino acid sequences for entries named in this document (tags omitted).
UniProt O43613, whole entry, species assumed: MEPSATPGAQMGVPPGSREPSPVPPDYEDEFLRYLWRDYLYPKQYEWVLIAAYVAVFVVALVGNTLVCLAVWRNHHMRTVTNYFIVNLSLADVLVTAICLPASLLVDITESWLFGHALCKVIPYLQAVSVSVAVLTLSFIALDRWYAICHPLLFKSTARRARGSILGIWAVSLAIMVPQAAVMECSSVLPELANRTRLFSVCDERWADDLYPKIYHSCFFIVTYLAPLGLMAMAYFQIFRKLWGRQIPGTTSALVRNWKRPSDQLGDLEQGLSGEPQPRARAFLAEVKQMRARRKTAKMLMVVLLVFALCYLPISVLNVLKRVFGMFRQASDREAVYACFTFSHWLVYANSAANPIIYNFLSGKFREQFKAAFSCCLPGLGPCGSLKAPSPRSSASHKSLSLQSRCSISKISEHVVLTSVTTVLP

Target: OX1R (Homo sapiens, UniProt O43613)
Assay: OX1R assay of WO2013/187466 (fluorescence measurement of intracellular Ca2+ changes)
Assay type: cell-based
Settings: selectivity ratio, as described in WO2013/187466

SMILES: CCN(C(=O)c1cc(F)ccc1-c1ncccn1)[C@@H](C)Cn1nnc(-c2ccc(F)cc2)n1
- OX2R IC50/OX1R IC50: 411
